The values that follow come from ChEMBL document CHEMBL1126876, “Synthesis of paraxanthine analogs (1,7-disubstituted xanthines) and other xanthines unsubstituted at the 3-position: structure-activity relationships at adenosine receptors” (J Med Chem, 1993).

Chains of the proteins cited; added tags and fusions are not shown.
UniProt P25099, whole entry: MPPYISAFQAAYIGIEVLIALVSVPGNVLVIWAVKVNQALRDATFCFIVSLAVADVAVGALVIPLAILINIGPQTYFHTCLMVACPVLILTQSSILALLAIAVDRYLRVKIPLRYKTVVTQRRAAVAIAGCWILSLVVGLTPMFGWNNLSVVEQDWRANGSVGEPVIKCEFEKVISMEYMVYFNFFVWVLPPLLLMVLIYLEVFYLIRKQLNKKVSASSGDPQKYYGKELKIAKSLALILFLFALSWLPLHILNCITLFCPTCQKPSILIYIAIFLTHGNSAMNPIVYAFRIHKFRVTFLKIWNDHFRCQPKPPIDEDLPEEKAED

This experiment deals with Adenosine receptor A1 (Rattus norvegicus, UniProt P25099). As to the kind of experiment: Binding affinity at Adenosine A1 receptor in rat brain cortical membrane using [3H]N6-R-phenylisopropyladenosine (R-PIA) as radioligand. The class given is cell membranes.

As usually defined, the Ki is the dissociation constant of the complex between target and ligand, obtained from inhibition or displacement. A low value points to higher affinity. For the compound `CCCCn1c(=O)[nH]c2nc[nH]c2c1=O`, the inhibitory constant (Ki) is 9 µM.
